We go through 1 compound from paper PMC13307271, “A Highly Selective, Cell-Permeable Fluorescent Probe for Imaging Histone Deacetylase 6 in Live Cells” (Journal of the American Chemical Society, 2026).

Chains of the proteins cited; added tags and fusions are not shown.
UniProt Q9UBN7, whole entry: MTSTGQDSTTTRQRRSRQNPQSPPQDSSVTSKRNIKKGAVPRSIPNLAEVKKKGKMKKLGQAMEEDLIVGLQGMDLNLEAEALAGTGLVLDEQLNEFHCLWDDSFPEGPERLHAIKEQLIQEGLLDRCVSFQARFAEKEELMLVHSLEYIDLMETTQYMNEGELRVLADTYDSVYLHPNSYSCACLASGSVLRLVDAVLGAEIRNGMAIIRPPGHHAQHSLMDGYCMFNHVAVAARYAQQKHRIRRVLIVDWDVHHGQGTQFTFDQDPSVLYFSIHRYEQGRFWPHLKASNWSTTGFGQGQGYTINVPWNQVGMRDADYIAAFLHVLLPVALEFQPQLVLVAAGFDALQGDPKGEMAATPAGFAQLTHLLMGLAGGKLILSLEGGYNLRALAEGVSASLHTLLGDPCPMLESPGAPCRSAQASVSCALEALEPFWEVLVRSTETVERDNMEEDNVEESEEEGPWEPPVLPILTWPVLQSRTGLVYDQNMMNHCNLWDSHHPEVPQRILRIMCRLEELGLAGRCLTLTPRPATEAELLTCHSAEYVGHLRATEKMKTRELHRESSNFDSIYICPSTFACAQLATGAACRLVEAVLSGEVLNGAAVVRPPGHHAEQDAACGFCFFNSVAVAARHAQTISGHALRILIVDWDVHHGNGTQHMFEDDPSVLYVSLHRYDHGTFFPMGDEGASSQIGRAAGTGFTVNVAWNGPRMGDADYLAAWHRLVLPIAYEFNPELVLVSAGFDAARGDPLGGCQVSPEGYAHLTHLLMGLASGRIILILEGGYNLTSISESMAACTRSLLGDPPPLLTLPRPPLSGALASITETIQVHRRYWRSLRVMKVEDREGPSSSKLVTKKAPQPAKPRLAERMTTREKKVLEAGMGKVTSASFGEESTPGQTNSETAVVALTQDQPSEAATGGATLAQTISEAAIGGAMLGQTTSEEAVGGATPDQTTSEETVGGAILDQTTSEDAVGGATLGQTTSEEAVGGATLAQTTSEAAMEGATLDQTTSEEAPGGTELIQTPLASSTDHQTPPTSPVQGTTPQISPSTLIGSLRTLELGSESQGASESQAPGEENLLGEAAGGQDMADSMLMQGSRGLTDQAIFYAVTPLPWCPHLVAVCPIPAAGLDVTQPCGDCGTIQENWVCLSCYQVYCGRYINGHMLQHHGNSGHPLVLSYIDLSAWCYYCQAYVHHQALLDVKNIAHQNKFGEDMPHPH

As usually defined, the Kd is the free concentration of one partner at which half of the binding sites on the other are occupied at equilibrium, for simple one-to-one binding. A low value points to tighter binding.

This test concerns the target HDAC6 (Homo sapiens, UniProt Q9UBN7). Description: HTRF saturation binding assay (terbium donor on protein, SiR acceptor). (In general: TR-FRET usually uses a lanthanide donor and a delayed reading to cut background.)

Take `CN(C)c1ccc2c(c1)[Si](C)(C)c1cc(N(C)C)ccc1C21OC(=O)c2ccc(C(=O)NCCCN(Cc3ccc(C(=O)NO)cc3)C(=O)Nc3ccccc3)cc21`: the Kd was found to be 21 nM.
